Three compounds from patent US11773129B2, “Methods of preventing or treating atherosclerosis with inhibitors of specific isoenzymes of human neuraminidase” (THE GOVERNORS OF THE UNIVERSITY OF ALBERTA, priority 2017, dated 2023) can be followed below.

For experiment [1], the target named is T1, NEU4 (Homo sapiens, UniProt Q8WWR8).
T1 sequence (Q8WWR8 1-484): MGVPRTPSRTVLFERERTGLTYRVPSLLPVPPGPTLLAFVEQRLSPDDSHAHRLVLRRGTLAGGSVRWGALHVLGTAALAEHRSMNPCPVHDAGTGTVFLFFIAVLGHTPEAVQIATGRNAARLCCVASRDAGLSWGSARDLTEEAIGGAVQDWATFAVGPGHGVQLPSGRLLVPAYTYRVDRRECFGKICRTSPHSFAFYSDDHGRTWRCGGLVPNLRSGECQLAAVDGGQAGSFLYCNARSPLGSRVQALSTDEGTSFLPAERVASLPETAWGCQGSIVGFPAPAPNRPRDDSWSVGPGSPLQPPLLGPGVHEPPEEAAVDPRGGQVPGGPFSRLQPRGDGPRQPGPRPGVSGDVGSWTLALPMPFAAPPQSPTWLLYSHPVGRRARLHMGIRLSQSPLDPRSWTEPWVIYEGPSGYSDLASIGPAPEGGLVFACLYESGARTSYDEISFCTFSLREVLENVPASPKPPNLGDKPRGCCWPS
The experiment in a line: Inhibition of GM3 cleavage, NEU4. As to conditions: read-out: IC50 NEU4, inhibition of GM3 cleavage; GM3 500 μM, pH 4.5.

The target of experiment [2] is T1, NEU4.
Another experiment has as its target T2, NEU1 (Homo sapiens, UniProt Q99519).
T2 construct: made in house; host or cells: HEK293 (lentiviral transduction), crude lysate
Briefly: IC50 inhibition assay using 4MU-NANA as the substrate, NEU1. The format is biochemical.

Regarding `CC(=O)N[C@H]1[C@H]([C@H](O)[C@H](O)CO)OC(C(=O)O)=C[C@@H]1O` [DANA, 2-deoxy-2,3-didehydro-N-acetylneuraminic acid, reference compound], the half-maximal inhibitory concentration (IC50) at NEU4 [1] was found to be 26 ± 8 µM. This compound also came in with a Ki on NEU4 [2] of 5.8 ± 0.6 µM.
The compound `CC(=O)N[C@@H]1C(O)C=C(C(=O)O)OC1C(O)C(O)CNC(=O)C(C)C` (stereo partly drawn) [compound 53, 5-Acetamido-9-isobutyramido-2,6-anhydro-3,5-dideoxy-D-glycero-D-galacto-non-2-enonic acid] displayed a concentration for half-maximal inhibition (IC50) against NEU1 of 250 ± 60 µM.
In turn, `CC(=O)N[C@H]1[C@H]([C@H](O)[C@H](O)CO)OC(C(=O)O)=C[C@@H]1NC(=N)N` [compound 6, zanamivir, reference compound] gave a Ki at NEU4 [2] of 26 ± 4 µM.

For orientation: IC50 means the midpoint of a concentration-inhibition curve. The Ki is a dissociation constant, usually derived from enzyme kinetics or from competition with a known ligand. A higher Ki goes with a looser hold on the target.
